## Ab-95 light chain CDR variants: yeast mating affinities

The measurements come from Engelhart et al. 2022 (doi:10.1038/s41597-022-01779-4) through the FLAb antibody collection.

All variants were tested on one target, the spike HR2 peptide PDVDLGDISGINAS (SARS-CoV-2).

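The parent was found by panning a naive human phage display library on the peptide. AAYL52 was designed without a model: most single CDR substitutions and a random sample of double and triple ones. The assay is AlphaSeq: two haploid yeast populations carry antibody and antigen on their surface. The frequency of each diploid, read from paired DNA barcodes, reflects how well the two displayed proteins bind. Scores were corrected for input abundance and mapped to Kd with protein pairs of known affinity run in the same pool. Mating was done three times.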

Each scFv is VH, a 15-residue (Gly4Ser)3 linker, VL, as in the parent Ab-95, and differs from it in the CDRs of the light chain only.
VH: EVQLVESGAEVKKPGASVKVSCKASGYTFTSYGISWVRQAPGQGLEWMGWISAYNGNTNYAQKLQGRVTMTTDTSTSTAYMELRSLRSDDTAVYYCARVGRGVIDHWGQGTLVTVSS
VL: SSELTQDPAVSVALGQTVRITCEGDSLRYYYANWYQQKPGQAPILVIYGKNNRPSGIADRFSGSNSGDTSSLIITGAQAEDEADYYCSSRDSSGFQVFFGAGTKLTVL

Substitutions are numbered in sequence along the VL above, starting at 1 (not Kabat). This list gathers variants with a substitution at S89 (VL, numbered from residue 1). Values are apparent Kd, the geometric mean of the replicates that gave a signal; lower means stronger binding. "nd" means that the variant was in the library but no mating with the target was seen in any replicate; the authors take this as a sign of poor binding, and no number exists. In this assay the parent's reference entry averaged 200 nM; its copy inside this library read 180 nM. As a blank, each scFv also met three strains without target: over library AAYL52, 28% of these pairings were detected, typically at 8.2 µM and seldom below 800 nM. Also given: how often the same scFv was detected with the empty control strains.

For S26K/G49C/S89G, the assay gave 220 µM (1 of 3 replicates; controls 2 of 9).
For S26G/Y31L/S89P, the assay gave 36 µM (1 of 3 replicates; controls 3 of 9).
For R53W/P54D/S89A, the assay gave 6.2 µM (3 of 3 replicates; controls 1 of 9).
For S89K, the assay gave 4.3 µM (3 of 3 replicates; controls 2 of 9).
For N33C/S89C/V97W, the assay gave 7.9 µM (2 of 3 replicates; controls 2 of 9).
For G49M/S89C/R90E, the assay gave 2.8 µM (1 of 3 replicates; controls 4 of 9).
For G49K/S89F/Q96V, the assay gave 8.1 µM (1 of 3 replicates; controls 0 of 9).
For S89P/S92N/Q96M, the assay gave 1.0 µM (3 of 3 replicates; controls 1 of 9).
For Y30E/S89T/D91V, the assay gave 18 nM (3 of 3 replicates; controls 0 of 9).
For D25G/P54G/S89K, the assay gave 6.2 µM (1 of 3 replicates; controls 3 of 9).
For G49D/N52H/S89H, the assay gave 760 nM (1 of 3 replicates; controls 0 of 9).
For Y30F/P54W/S89K, the assay gave 3.6 µM (2 of 3 replicates; controls 4 of 9).
For G24R/K50Q/S89G, the assay gave 790 nM (3 of 3 replicates; controls 1 of 9).
For L27G/S89W/V97Q, the assay gave 1.2 µM (2 of 3 replicates; controls 4 of 9).
For S88F/S89K/F98T, the assay gave 14 µM (1 of 3 replicates; controls 1 of 9).
For P54M/S88W/S89C, the assay gave 8.3 µM (1 of 3 replicates; controls 1 of 9).
For P54L/S89N/F98V, the assay gave 6.5 µM (1 of 3 replicates; controls 1 of 9).
For N51D/S89P/S92N, the assay gave 3.1 µM (3 of 3 replicates; controls 4 of 9).
For N51H/S89Y/F95T, the assay gave 2.7 µM (1 of 3 replicates; controls 4 of 9).
For D25C/Y31C/S89T, the assay gave 2.0 µM (3 of 3 replicates; controls 6 of 9).
For A32N/S89E/Q96E, the assay gave 6.6 µM (2 of 3 replicates; controls 1 of 9).
For S55D/S89E/G94R, the assay gave 280 nM (3 of 3 replicates; controls 2 of 9).
For R53V/S89F/Q96R, the assay gave 3.5 µM (2 of 3 replicates; controls 3 of 9).
For Y29I/R53N/S89Y, the assay gave 120 µM (2 of 3 replicates; controls 3 of 9).
For E23H/G24H/S89D, the assay gave 1.9 µM (2 of 3 replicates; controls 2 of 9).
For G49S/S89T/F95T, the assay gave 1.3 µM (3 of 3 replicates; controls 2 of 9).
For A32D/S89P/S92N, the assay gave 350 µM (1 of 3 replicates; controls 1 of 9).
For K50Q/S89G/F98K, the assay gave 120 nM (3 of 3 replicates; controls 4 of 9).
For S55G/S89I/S92I, the assay gave 380 nM (3 of 3 replicates; controls 4 of 9).
For K50T/S89H/Q96N, the assay gave 5.2 µM (2 of 3 replicates; controls 1 of 9).
For S55A/S89D/G94S, the assay gave 360 nM (3 of 3 replicates; controls 3 of 9).
For P54L/S89N/S93K, the assay gave 660 nM (3 of 3 replicates; controls 4 of 9).
For G49F/K50T/S89K, the assay gave 29 µM (2 of 3 replicates; controls 4 of 9).
For S88M/S89F/V97G, the assay gave nd (0 of 3 replicates; controls 2 of 9).
For S89D, the assay gave 400 nM (3 of 3 replicates; controls 4 of 9).
For N33I/S89Q/S93N, the assay gave nd (0 of 3 replicates; controls 0 of 9).
For S89H, the assay gave 180 nM (3 of 3 replicates; controls 5 of 9).
For G49T/S89H/Q96M, the assay gave nd (0 of 3 replicates; controls 0 of 9).
For D25R/S89L/S93E, the assay gave 3.2 µM (3 of 3 replicates; controls 2 of 9).
For S26P/S89R/Q96L, the assay gave 1.1 µM (3 of 3 replicates; controls 3 of 9).
For L27G/Y29S/S89W, the assay gave 2.0 µM (3 of 3 replicates; controls 1 of 9).
For S89M/S93Y/G94Y, the assay gave 2.1 µM (3 of 3 replicates; controls 2 of 9).
For L27S/N52L/S89C, the assay gave 420 nM (3 of 3 replicates; controls 3 of 9).
For P54Y/S88P/S89W, the assay gave 110 µM (1 of 3 replicates; controls 0 of 9).
For R28P/Y29M/S89G, the assay gave 330 nM (3 of 3 replicates; controls 0 of 9).
For K50R/S89C/S93F, the assay gave 1.1 µM (3 of 3 replicates; controls 1 of 9).
For S89E/F95K, the assay gave nd (0 of 3 replicates; controls 0 of 9).
For D25V/S88M/S89I, the assay gave 700 nM (2 of 3 replicates; controls 1 of 9).
For G49Y/S89R/S92P, the assay gave nd (0 of 3 replicates; controls 3 of 9).

The last 6 entries again:

Variant P54Y/S88P/S89W gave 110 µM (1 of 3 replicates; controls 0 of 9).
Variant R28P/Y29M/S89G gave 330 nM (3 of 3 replicates; controls 0 of 9).
Variant K50R/S89C/S93F gave 1.1 µM (3 of 3 replicates; controls 1 of 9).
Variant S89E/F95K gave nd (0 of 3 replicates; controls 0 of 9).
Variant D25V/S88M/S89I gave 700 nM (2 of 3 replicates; controls 1 of 9).
Variant G49Y/S89R/S92P gave nd (0 of 3 replicates; controls 3 of 9).